IL2 activator = IL-2 activation; 360,000 tested, 0.065% active; IL-2 activation reporter assay, cell-based qHTS; stimulated with anti-CD3/CD4/CD28 beads; in transgenic mouse T cells; activation, % (series mostly up to about 46 µM); in the data active = activation above about 50%; inconclusive = mostly about 30% to 49%; also: 0% is about no effect
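First, unstimulated transgenic mouse T cells were exposed to compound for 60 min. Next, anti-CD3/anti-CD4-coated beads with anti-CD28 were added. Finally, after 18 h at 37 degrees C, EGFP and DsRed were imaged.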
ClpP mod = qHTS Assay for Activators of ClpP; purified B. subtilis ClpP, FRET peptide cleavage, 20 min; Potency, µM (top dose mostly 57.5 µM), for inactives: at the highest dose activity change, negative = active; 340,000 tested, 1.9% active; active = well fitted falling curve with a large enough effect; inconclusive = small, poorly fitted or top-dose-only effect; inactive = no such curve, though single readings can be large or run the other way; also: potency is read from the fitted curve at half-maximal effect; the source files actives as falling curves though it sought activators and does not explain the sign; nearly all actives have a fitted effect of over 65% in size
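Purified B. subtilis ClpP, 10 microg/mL final in Tris/HCl pH8 with KCl, BSA, glycerol and Tween-20, cleaved an Abz/nitrotyrosine-quenched decapeptide. Fluorescence (ex 320, em 430) was read at 0 and 20 min at room temperature. Delta was normalized to 5.8 microM ADEP and DMSO/no-enzyme controls.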
Nrf2 block = Nrf2 pathway inhibition; 360,000 tested, 2.1% active; A549 ARE-Fluc reporter, luciferase luminescence, 18-24 h; Potency, µM (highest dose often 46 µM), without a hit: at the highest dose activity change, negative = inhibition, actives largely listed as inhibitors; also: potency is read from the fitted curve at half-maximal effect; % is scaled to controls: 0 for no effect and ±100 for the full control effect; nearly all actives have a fitted effect of over 60% in size
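Nrf2 function is reported as luminescence of an ARE-controlled luciferase in A549 cells. Compounds were tested at several concentrations, and a CellTiter-Fluor read on the same wells flagged cytotoxicity.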
Nrf2 ARE act = Nrf2 pathway activation; AREc32 ARE-luciferase reporter (MCF7-derived line), luminescence, 24 h; Potency, µM (series often up to 46.1 µM), without a hit: at the top dose activation, hits mostly activators; 410,000 tested, 0.31% active; AID 624171; also: potency is read from the fitted curve at half-maximal effect; % of control where 0% means no effect; nearly all actives have a fitted effect of over 65% in size
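ARE-driven firefly luciferase activity in AREc32 cells measured after a 24 hr compound exposure at 37 deg C, using Steady-Glo reagent and a 30 min room-temperature hold.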
miR-21 reporter = miR-21 reporter, rising signal; Potency, µM (titrated, usually from 38.3 µM), without a hit: at the highest dose reporter change, positive = more light; AID 2288; 340,000 tested, under 10 active; HeLa miR-21 FLuc reporter, luciferase, 48 h; active = well fitted rising curve with a large enough effect; inconclusive = small, poorly fitted or top-dose-only effect; inactive = no such curve, though single readings can be large or run the other way;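 note: % of control where 0% means no effect; miR-21 action dims this reporter so a rising signal means less miR-21 action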
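Compounds were titrated across several concentrations (up to approximately 40 uM) and incubated 48 hours with HeLa miR-21-FLuc reporter cells (miR-21 target sequence downstream of FLuc, endogenous miR-21). Readout was firefly luciferase luminescence after lytic detection reagent.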
A549 tox = kills or reduces viability of A549 cells in Nrf2 counter-screen | A549 ARE-Fluc cells, CellTiter-Fluor viability, 18-24 h | Potency, µM (titrated, usually from 46 µM), inactives show at the top dose activity change, negative = cytotoxicity, most hits filed as inhibitors | 390,000 tested, 0.16% active; also: potency is read from the fitted curve at half-maximal effect; % is scaled to controls: 0 for no effect and ±100 for the full control effect
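A549 ARE-Fluc cells in 5% FBS OPTI-MEM, 5000 cells/well, rested 2 h then exposed to compounds in concentration-response for 18-24 h at 37 °C. Viability by CellTiter-Fluor fluorescence (Ex 405/Em 525) after 30 min; luciferase luminescence (BugLite, 15 min, RT) read afterwards.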
* = called active by the depositor; ? = inconclusive; . = not tested or not shown. Hits are enriched below; roughly 3.7% of the tested compounds scored in any of these assays. Unless noted, calls follow the shape of the dose curve; as a rule, active = well fitted curve in the direction sought with a large enough effect; inconclusive = small, poorly fitted or top-dose-only effect, or another doubt; inactive = no such curve, though single readings can be large; an effect the other way counts as inactive or inconclusive.

Screens by letter – A = IL2 activator; B = ClpP mod; C = Nrf2 block; D = Nrf2 ARE act; E = miR-21 reporter; F = A549 tox
Cc1cc(C(=O)Nc2nnc(C(F)(F)F)s2)cs1
  A = -4 | B = . | C = 5% | D = 8.9µM* | E = -20% | F = -6%

COc1cccc(NC(=O)COc2ccccc2C(=O)Nc2ccccc2)c1
  A = . | B = 3% | C = . | D = . | E = . | F = .

CCc1cc(=O)oc2c(C)c(OS(C)(=O)=O)ccc12
  A = -2 | B = ? | C = 2% | D = 0% | E = . | F = 3%

CCc1cc2c(=O)c(-c3ccc4c(c3)OCCO4)c(C)oc2cc1OS(C)(=O)=O
  A = 1 | B = -2% | C = 23µM* | D = 4% | E = 4% | F = ?

COc1ccc(NC(=S)Nc2nc(CC(=O)Nc3ccccc3OC)cs2)cc1
  A = 0 | B = -3% | C = ? | D = 2% | E = 17% | F = ?

COc1ccccc1NC(=O)Cc1csc(NC(=S)Nc2ccccc2)n1
  A = -2 | B = -2% | C = 21µM* | D = 3% | E = 15% | F = 18µM*

CC(=O)Nc1ccc(/C=C2\C=Cc3ccccc32)cc1
  A = . | B = 2% | C = . | D = . | E = . | F = .

Cc1ccc(OCCn2cc(/C=C3\C(=O)NN(c4ccccc4)C3=O)c3ccccc32)cc1
  A = 2 | B = 18µM* | C = -2% | D = 0% | E = 0% | F = 0%

Cc1ccc(OCCn2cc(C=O)c3ccccc32)cc1
  A = -1 | B = -1% | C = -2% | D = 3% | E = -3% | F = 8%

CCS(=O)(=O)Nc1ccc(-c2cc(-c3ccccc3)c3cc(C)ccc3n2)cc1
  A = 0 | B = 18µM* | C = 23µM* | D = 7% | E = -2% | F = ?

Arranged by the number under miR-21 reporter (highest first): 4 from the list above
smiles	IL2 activator	Nrf2 ARE act	miR-21 reporter
COc1ccc(NC(=S)Nc2nc(CC(=O)Nc3ccccc3OC)cs2)cc1	0	2%	17%
CCc1cc2c(=O)c(-c3ccc4c(c3)OCCO4)c(C)oc2cc1OS(C)(=O)=O	1	4%	4%
Cc1ccc(OCCn2cc(C=O)c3ccccc32)cc1	-1	3%	-3%
Cc1cc(C(=O)Nc2nnc(C(F)(F)F)s2)cs1	-4	8.9µM*	-20%

Next records.
Screens by letter – A = IL2 activator; B = ClpP mod; C = Nrf2 block; D = Nrf2 ARE act; E = miR-21 reporter; F = A549 tox
Cc1ccc2nc(-c3ccc(NS(C)(=O)=O)cc3)cc(-c3ccccc3)c2c1
  A = -5 | B = ? | C = . | D = 0% | E = 8% | F = -6%

COc1ccc(C(=O)c2c(C(F)(F)F)oc3c2C(=O)c2ccccc2C3=O)cc1
  A = 0 | B = 3.2µM* | C = . | D = -3% | E = 7% | F = 7.3µM*

O=C(CN1C(=O)c2ccccc2Sc2ccc(C(=O)N3CCOCC3)cc21)Nc1ccc(Cl)cc1F
  A = . | B = 0% | C = . | D = -1% | E = -5% | F = -1%

CCN(CC)CCOc1ccc2c(c1)C(=NO)c1cc(OCCN(CC)CC)ccc1-2
  A = -2 | B = -1% | C = ? | D = 3% | E = 14% | F = 8.2µM*

NCC(=O)Nc1ccc(Br)cc1
  A = -2 | B = . | C = 5% | D = 3% | E = 6% | F = -7%

C=CC(=O)Nc1ccc(Br)cc1
  A = -1 | B = 16µM* | C = . | D = 17% | E = 9% | F = -1%

Cc1ccccc1NC(=O)C1CC(=O)N(c2ccccc2F)C1 (centres undefined)
  A = -3 | B = 14µM* | C = . | D = 0% | E = -8% | F = -1%

Cc1ccccc1NC(=O)C1CC(=O)N(c2ccc3c4c(cccc24)CC3)C1 (centres undefined)
  A = 0 | B = -2% | C = 5% | D = 1% | E = 2% | F = 4%

CCOC(=O)c1ccc(NC(=O)Cn2cnc3sc(C(=O)OCC)c(C)c3c2=O)cc1
  A = . | B = -4% | C = . | D = -1% | E = -8% | F = 4%

Cc1ccnc(S(=O)(=O)Cc2ccc([N+](=O)[O-])cc2)n1
  A = 0 | B = 2% | C = ? | D = 13µM* | E = -2% | F = -7%

Cc1cc(C)nc(SCC(=O)c2ccc([N+](=O)[O-])cc2)n1
  A = 1 | B = -4% | C = -15% | D = 1% | E = -7% | F = -4%

Cc1ccnc(SCC(=O)c2ccc([N+](=O)[O-])cc2)n1
  A = 0 | B = 16µM* | C = -1% | D = 0% | E = 0% | F = -2%

Cn1c(CO)cnc1S(=O)(=O)Cc1ccc([N+](=O)[O-])cc1
  A = -2 | B = 2% | C = . | D = 0% | E = 0% | F = 0%

CCOc1ccc(/C=C/c2nc(C#N)c(N3CCN(c4ccc(OC)cc4)CC3)o2)cc1
  A = . | B = ? | C = 17% | D = 0% | E = 2% | F = 3%

O=C1Cc2cc(S(=O)(=O)N3CCN(c4ccc([N+](=O)[O-])cc4)CC3)ccc2N1
  A = . | B = . | C = 31% | D = . | E = . | F = -4%

COc1ccc(S(=O)(=O)Nc2cccc(N(C)S(C)(=O)=O)c2)cc1Br
  A = -3 | B = -2% | C = 18µM* | D = 3% | E = 1% | F = -18%

Cc1c(Cl)cccc1NC(=O)c1cc2nc(-c3ccc4c(c3)OCO4)cc(C(F)(F)F)n2n1
  A = . | B = -3% | C = 4% | D = -1% | E = 7% | F = 1%

Cn1c(-c2ccccc2)c(CCO)c2ccccc21
  A = 4 | B = 28µM* | C = 6% | D = 1% | E = 8% | F = 6%

Cc1cn(C)c(CC(=O)NCc2cccc(Cl)c2)c1C(=O)O
  A = . | B = -2% | C = . | D = -1% | E = 7% | F = 5%

COc1cccc(N2CCN(C(=O)c3ccc4ccccc4c3)CC2)c1
  A = -3 | B = -5% | C = 22% | D = -1% | E = . | F = -1%

CCN1CCN(C(=O)Cn2c(=O)sc3ccccc32)CC1
  A = -3 | B = 0% | C = 8% | D = 0% | E = -8% | F = -7%

COc1cccc(N2CCN(C(=O)Cn3c(-c4cccs4)cc4ccccc43)CC2)c1
  A = . | B = 16µM* | C = -9% | D = 5% | E = 1% | F = 1%

CCN1CCN(C(=O)Cn2c(-c3cccs3)cc3ccccc32)CC1
  A = . | B = 32µM* | C = 18% | D = 3% | E = -9% | F = 11%

CCOc1ccccc1C(=O)Nc1nc2c(s1)CC(C)CC2 (centres undefined)
  A = . | B = 4% | C = ? | D = 4% | E = -59% | F = 7%

O=[N+]([O-])c1cccc(S(=O)(=O)N2CCN(S(=O)(=O)c3ccc4c(c3)OCCO4)CC2)c1
  A = . | B = . | C = 14% | D = . | E = . | F = 1%

CCOC(=O)c1c(C)[nH]c(C)c1S(=O)(=O)N1CCCC(C(=O)NCc2ccc(N(C)C)cc2)C1 (centres undefined)
  A = . | B = -2% | C = 10% | D = -1% | E = -3% | F = 2%

CCOc1ccc(OCC)c(S(=O)(=O)NCCOC23CC4CC(CC(C4)C2)C3)c1
  A = 0 | B = 0% | C = ? | D = 0% | E = 21% | F = 0%

COc1cc(S(=O)(=O)NCCOC23CC4CC(CC(C4)C2)C3)c(OC)cc1Cl
  A = -3 | B = -1% | C = 21µM* | D = 0% | E = 0% | F = -1%

O=C(Cn1c(=O)c2cccn2c2ccccc21)NCc1ccccc1F
  A = . | B = ? | C = ? | D = 1% | E = -9% | F = 1%

CCOC(=O)c1cc2c(n(-c3ccccc3)c1=O)CC(C)(C)CC2=O
  A = 1 | B = 13µM* | C = . | D = 0% | E = -3% | F = 0%

CC1(C)CC(=O)c2cc(C(=O)O)c(=O)n(-c3ccccc3)c2C1
  A = -3 | B = -5% | C = 3% | D = -1% | E = 0% | F = -3%

CC(=O)Nc1cccc(CP(=O)(c2ccccc2)c2ccccc2)c1
  A = 1 | B = 32µM* | C = -14% | D = -1% | E = 5% | F = 4%

COc1ccc(NC(C)=O)cc1CP(=O)(c1ccccc1)c1ccccc1
  A = -3 | B = -1% | C = 4% | D = 0% | E = 1% | F = 3%

COc1ccc(NC(=O)CSc2ccc3nc(-c4ccccc4)cn3n2)c(OC)c1
  A = . | B = -27% | C = . | D = -5% | E = 13% | F = -16%

C[C@@H]1CC[C@]2(C(=O)O)CC[C@]3(C)C(=CCC4[C@]56CC[C@@](O)(OC5)C(C)(C)C6CC[C@]43C)C2[C@H]1C (some centres undefined)
  A = 1 | B = 2% | C = 15µM* | D = 0% | E = . | F = -25%
